Data published in patent US20220395511A1, “COMPOSITIONS AND METHODS FOR INCREASING CELL SURFACE OXYTOCIN RECEPTOR (OXTR)” (Washington University, priority 2021, published 2022).

By UniProt entry, the sequences of proteins in these tests, tags left out.
UniProt P30559, whole entry V281M: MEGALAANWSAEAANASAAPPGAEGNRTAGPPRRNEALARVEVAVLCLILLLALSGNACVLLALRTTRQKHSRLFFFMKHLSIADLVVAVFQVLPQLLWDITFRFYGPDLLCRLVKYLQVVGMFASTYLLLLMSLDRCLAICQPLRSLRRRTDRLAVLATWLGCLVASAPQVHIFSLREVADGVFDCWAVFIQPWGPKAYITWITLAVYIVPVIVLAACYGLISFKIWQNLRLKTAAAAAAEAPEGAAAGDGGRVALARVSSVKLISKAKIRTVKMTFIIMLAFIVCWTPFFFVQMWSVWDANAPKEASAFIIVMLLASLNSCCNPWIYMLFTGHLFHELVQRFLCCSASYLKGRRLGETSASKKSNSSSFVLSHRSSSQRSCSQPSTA

Key:
[1] = test system: OXTR; assay: Cell surface OXTR in transfected HEK293T cells, OXTR form not stated; format: cell-based, human; conditions: WT or V281M not stated, 10 μM, 16 h
[2] = target: T1, V281M OXTR (Homo sapiens, UniProt P30559, V281M); assay: Oxytocin-induced IP1 production in HEK293T cells transfected with V281M OXTR; format: cell-based; conditions: 10 μM, 16 h, vehicle-treated V281M was 80% of WT
T1 construct: expressed in transfected cells; host or cells: HEK293T (transient)

[3] = target: V281M OXTR-GFP (Homo sapiens, UniProt P30559, V281M); conditions: stably transfected HEK293; for colocalization of V281M OXTR-GFP with PDI (ER) and golgin-97 (Golgi): 10 μM, Pearson's r

Compound	effect on surface OXTR in transfected HEK293T cells [1]	maximal oxytocin-induced IP1 production compared with WT OXTR-expressing cells [2]	colocalization of V281M OXTR-GFP with PDI (ER) and golgin-97 (Golgi) [3]	cell surface localization of V281M OXTR-GFP ([3]; 10 μM overnight)
Cc1cc(C(=O)N2Cc3cnn(C)c3Nc3ccccc32)ccc1CNC(=O)N1CCN(Cc2cc(O)cc(O)c2)CC1 [WAY26746, 4-(3,5-Dihydroxybenzyl)-N-(2-methyl-4-[(1-methyl-4,10-dihydropyrazolo[3,4-b][1,5]benzodiazepin-5(1H)-yl)carbonyl]benzyl)piperazine-1-carboxamide]	decreased	–	–	–
COc1cc(OC2CCN(C(C)=O)CC2)ccc1C(=O)N1CCC(N2C(=O)OCc3ccccc32)CC1 [L371,257, 1-[1-[4-(1-acetylpiperidin-4-yl)oxy-2-methoxybenzoyl]piperidin-4-yl]-4H-3,1-benzoxazin-2-one]	greatest effect of all the candidate compounds	abolished this difference	decreased	–
COc1ccc(S(=O)(=O)N2c3ccc(Cl)cc3[C@](O)(c3ccccc3Cl)[C@@H]2C(=O)N2CCC[C@H]2C(N)=O)cc1OC [SR49059, (2S)-1-[[(2R,3S)-5-Chloro-3-(2-chlorophenyl)-1-[(3,4-dimethoxyphenyl)sulfonyl]-2,3-dihydro-3-hydroxy-1H-indol-2-yl]carbonyl]-2-pyrrolidinecarboxamide]	–	–	decreased	improved
